For 65 compounds, inhibition results are on record in PubChem BioAssay AID463212 (Sanford-Burnham Center for Chemical Genomics, 2010).

For orientation: inhibition means the relative decrease from the control value, in per cent.

The entries are a selection whose mix differs from that of the whole data set. Activity calls are given as the source filed them.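 How the source made its calls: active means growth inhibition of the mutant yeast at or above 50%; inactive means the rest.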

A short description of this assay: growth inhibition of tim23-1 ts yeast – luminescence, uHTS, primary screen (AID 463212).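 Further: temperature-sensitive mutant grown at 25 °C; plate controls were DMSO-treated mutant yeast for no effect and medium wells lacking yeast for full effect.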 The note with it: S. cerevisiae tim23-1 growth, BacTiter-Glo luminescence, 24 h; at 20 µM; active compounds read high.
With `COc1ccc2nc(NP(=O)(c3ccccc3)c3ccccc3)sc2c1`, the inhibition was inactive: -44.1%. To `COc1cc(I)ccc1[As](=O)(O)O` belongs inactive: 10.4%; to `O=C(OC1CN2CCC1CC2)C12CC3CC(CC(C3)C1)C2` (stereo not given), inactive: 20.9%. As for `Cc1cc(=O)[nH]c(N[N+](=O)[O-])n1`, the figure is inactive: 1.07%. To `Cc1c2c(nc3ccccc13)SC(C(Cl)Cl)C2` (stereo not given) belongs inactive: 33.6%; to `COc1ccc(N/C(=N/P(=O)(N2CCOCC2)N2CCOCC2)N2CCOCC2)cc1`, inactive: 7.65%; to `Cc1ccc2nc3c(c(C)c2c1)CC(C(Cl)Cl)S3` (stereo not given), inactive: 32.3%.

For `Cc1ccc(OP(=O)(Nc2ccc([N+](=O)[O-])cn2)Oc2ccc(C)cc2)cc1`, the inhibition was inactive: 8.8%. For the compound `C[As](=O)(O)c1cccc(C(=O)O)c1`, the inhibition was inactive: 3.99%. As for `O=[As](O)(c1ccc(O)cc1)c1ccccc1O`, the figure is inactive: -3.63%; as for `COc1cc(C(=O)NCC2(N3CCOCC3)CCCCC2)ccc1OCC(C)C`, inactive: 8.97%. Regarding `CC(C)NC(=O)NP(=O)(Oc1ccccc1)Oc1ccccc1`, the inhibition is inactive: 9.21%.

In the case of `O=C(OC1CN2CCC1CC2)c1cccc2[nH]cnc12` (stereo not given), the inhibition is inactive: -9.05%. As for `CCN(CC)C(=S)SC(NC=O)C(Cl)(Cl)Cl` (stereo not given), the figure is inactive: 13.9%; as for `O=[N+]([O-])c1cc([N+](=O)[O-])c(-c2ccn[nH]2)s1`, inactive: 48.8%. In the case of `CC(C)c1ccc(OP(=O)(Nc2ccccn2)Oc2ccccc2F)cc1` (stereo not given), the inhibition is inactive: 31.5%. To `ClCCSc1nnc(-c2cccnc2)o1` belongs inactive: 27.3%; to `CCCCOc1ccc(C(=O)NCC2(N3CCCCC3)CCCCC2)cc1OC`, inactive: -2.02%; to `Cc1cc(SC(NC(=O)c2ccccc2)C(Cl)(Cl)Cl)nc(C(C)C)n1` (stereo not given), inactive: 44.9%. As for `CCOC(=O)Nc1ccc([As](=O)(O)O)c(O)c1`, the figure is inactive: -4.01%; as for `Cc1cc(SC(NC=O)C(Cl)(Cl)Cl)ncn1` (stereo not given), inactive: 1.46%; as for `O=P(Nc1ccccn1)(c1cccc2ccccc12)c1cccc2ccccc12`, inactive: -34%.

`CCOC(=O)Nc1cccc([As](=O)(O)O)c1`: the inhibition is inactive: 7.94%.

Take `O=C(COc1ccccc1)OC1CN2CCC1CC2` (stereo not given): the inhibition is inactive: -4.49%. As for `O=C(Nc1ccncc1[N+](=O)[O-])c1ccc([N+](=O)[O-])cc1[N+](=O)[O-]`, the figure is inactive: 27.3%; as for `COP1(=S)c2c(C)nn(CCC#N)c2N=C(c2ccc(F)cc2)N1C` (stereo not given), inactive: 8.88%; as for `CCC(C)N(CC(C)C)C(=S)SC(NC(C)=O)C(Cl)(Cl)Cl` (stereo not given), inactive: 25%.

Regarding `CCOC(=O)c1ccc(NC(=O)C(C)(CCl)SC)cc1` (stereo not given), the inhibition was inactive: 20.2%. To `O=C(OC1CN2CCC1CC2)c1cccc([N+](=O)[O-])c1` (stereo not given) belongs inactive: -189%; to `Clc1n[nH]nc1-c1nn[nH][15n]1`, inactive: 4.24%. Take `CC(C)(C)C(=O)NC(Sc1ncccn1)C(Cl)(Cl)Cl` (stereo not given): the inhibition is inactive: 16.7%. To `CCOP(=O)(Nc1ccc(C)cn1)OCC` belongs inactive: -15%; to `CN(CCCl)Cc1cc(Cl)c(NC2=NCCN2)c(Cl)c1`, inactive: -23.4%; to `CCC1=CC2Cc3nc4ccc(Cl)cc4c(N)c3C(C1)C2` (stereo not given), inactive: 6.91%. To `O=P1(Nc2ccccn2)COc2ccccc2OC1` belongs inactive: 9.94%.

On to `CCOP(=O)(NC(=NC(C)c1ccccc1)NC(C)c1ccccc1)OCC` (stereo not given), for which the inhibition was inactive: 26.6%. As for `O=[As](O)(c1ccccc1Br)c1ccccc1Br`, the figure is inactive: -5.44%; as for `CC1(CBr)Cn2c(nc3ccccc3c2=O)S1` (stereo not given), inactive: 1.19%; as for `CN(C(=O)Cc1ccc(Cl)c(Cl)c1)[C@@H]1CCCC[C@H]1N1CCCC1`, inactive: -6.08%. As for `CC(C)/C=N\N=C(\N)N[N+](=O)[O-]`, the figure is inactive: -3.56%; as for `COc1ccccc1CNC(=O)COC(=O)C(O)(c1ccccc1)c1ccccc1`, inactive: 7.42%.

With `O=C(/C=C/c1ccccc1)OC1CN2CCC1CC2` (stereo not given), the inhibition was inactive: 5.57%.

`CN(C)C1(CNC(=O)c2ccc(S(C)(=O)=O)cc2)CCCCC1`: the inhibition was inactive: 3.95%. With `Cc1nn(-c2ccccc2)c2c1P(=O)(N1CCOCC1)N(C)C(c1ccccc1)=N2` (stereo not given), the inhibition is inactive: -3.17%.

Take `Cc1ccc(C(=O)OC2CN3CCC2CC3)cc1` (stereo not given): the inhibition was inactive: -16.6%.

As to `CC1CCC(C(C)C)C(OP(=O)(Nc2ccccn2)c2ccccc2)C1` (stereo not given), the inhibition was inactive: 38.4%.

For `O=[As](O)(c1cccs1)c1cccs1`, the inhibition was inactive: 9.65%.

As to `Cc1ccc(OCC(=O)OC2CN3CCC2CC3)cc1` (stereo not given), the inhibition is inactive: 0.493%. To `NS(=O)(=O)c1cccc(NC(=O)COC(=O)C(O)(c2ccccc2)c2ccccc2)c1` belongs inactive: 7.66%; to `O=P1(Nc2ccc(Br)cn2)COc2ccccc2OC1`, inactive: 13.4%; to `Nc1cccc([As](=O)(O)c2ccccc2)c1`, inactive: -0.534%. With `O=P1(Nc2ncccn2)COc2ccccc2OC1`, the inhibition was inactive: 23.4%. To `O=C(O)COc1ccc([As](=O)(O)O)cc1[N+](=O)[O-]` belongs inactive: 2.65%.

As to `Nc1ccccc1[As](=O)(O)c1ccccc1`, the inhibition was inactive: 2.4%. As for `CS(=O)(=O)c1cc([N+](=O)[O-])c2no[n+]([O-])c2c1`, the figure is inactive: 23.3%; as for `CCOP1(=S)c2c(C)nn(CCC#N)c2N=C(c2ccccc2F)N1C` (stereo not given), inactive: 20.6%; as for `O=P(Nc1nccs1)(Oc1ccccc1)Oc1ccccc1`, inactive: 12.8%.

`O=P(Nc1nccs1)(c1ccccc1)c1nc2ccccc2s1` (stereo not given): the inhibition was inactive: 4.22%. Take `O=[N+]([O-])c1ccc2c(c1)nnn2O`: the inhibition was inactive: 8.9%.

`CN(C)C(=O)c1cc([N+](=O)[O-])cc2c1-c1c(cc([N+](=O)[O-])cc1[N+](=O)[O-])C2=O`: the inhibition is inactive: 46.4%.

As for `CN(C(=O)Cc1ccc(Cl)c(Cl)c1)[C@H]1CC[C@@]2(CCCO2)C[C@@H]1N1CCCC1`, the inhibition was inactive: 9.42%.

Turning to `N#CCCN(C(=O)COC(=O)C(O)(c1ccccc1)c1ccccc1)c1ccc(F)cc1`, the inhibition was inactive: 23.3%. As for `CCOP1(=S)c2c(C)nn(CCC#N)c2N=C(c2ccc(F)cc2)N1C` (stereo not given), the figure is inactive: 6.91%; as for `CN(C(=O)Cc1ccccc1)[C@@H]1CC[C@]2(CCCO2)C[C@H]1N1CCCC1`, inactive: 14.9%; as for `NC(=O)Nc1ccc([As](=O)(O)O)cc1`, inactive: 9.21%.
